Experimental findings from ChEMBL document CHEMBL1833948, “Structural determinants of opioid and NOP receptor activity in derivatives of buprenorphine” (2011) are described below.

The assay concerns Mus musculus. As to the kind of experiment: Antinociceptive activity in sc dosed CD1 mouse by tail flick assay. The conditions noted are these: strain CD1, Tail. On the technique in general: In hot-plate and tail-flick tests a longer latency is read as antinociception.

Consider `CO[C@@]12CC[C@@]3(C[C@@H]1[C@](C)(O)C(C)(C)C)[C@H]1Cc4ccc(O)c5c4[C@@]3(CCN1CC1CC1)[C@H]2O5`, for which the A50 is 1 mg/kg.
